According to patent US20130143965A1, “MICROBI[…] AND STABLE SOLUTIONS OF GAMMA-HYDRO[…] FOR THE TREATMENT OF NARCOLEPSY” (Jazz Pharmaceuticals, Inc., priority 1998, published 2013):

Assay: Solubility determination of calcium salt of gamma-hydroxybutyrate
Type: physicochemical
Description: • 1. Solubility determination: Little information is available about the solubility of this alternative salt of gamma-hydroxybutyrate and a determination of solubility was done in advance of efforts to prepare formulations for evaluation by stability and microbial challenge. Maximum solubility is evaluated for pH unadjusted solutions and within the pH range desired for this formulation (pH 6.0-8.0). If solubility is limited, the formulation will be changed to accommodate the solubility limitations. The preferred acidulent for this work is Malic acid. If acid is not compatible with the salt, then an alternative acid can be selected. • 2. Preparation: Method for preparation of alternative salt formulations: • a. The previously described method (Part A) is used for preparation of formulations of calcium gamma-hydroxybutyrate at the concentrations and specified pH determined by solubility experiments. • b. The final solutions were filtered through 10 μm filters and dispensed into 5 amber PET bottles with closures (provided by Orphan Medical, Inc.). Two bottles are used for microbial challenge studies and two bottles are placed on limited stability. The remaining bottles are retained for any additional studies at a future time: • 3. Testing: Formulations are tested as described above. • C. Reporting of Results: The results will be reported for the Stability and Microbial Challenge results in standard format as defined by the described Orphan Medical Development. Copies of HPLC chromatograms and any raw data from these studies will be provided with results. • D. Acceptance Criteria: Specific acceptance criteria for this study can be described analogous to those for sodium oxybate.

calcium gamma-hydroxybutyrate [calcium salt of gamma-hydroxybutyrate]
Appearance of the final solution (500 mg/cc, pH 7.5, Malic acid as acidulant): slightly yellow in color
solubility (500 mg/cc, pH adjusted to 6.0 with Malic acid): limited
pH of the solution at the limit of solubility (700 mg/cc, without pH adjustment): 8.4
Maxium Solubility (pH 6.0, 25°): 500 mg/cc
Maxium Solubility (pH 8.4 (unadjusted), 25°): 700 mg/cc
absolute limit of solubility (without pH adjustment): 700 mg/cc
